Experimental data reported in publication PMC6294515, “Structural basis of the specific interaction of SMRT corepressor with histone deacetylase 4” (Nucleic Acids Research, 2018).

What was measured:
HDAC4c = assay: Interaction with HDAC4c (yeast two-hybrid, GST pull-down, BiFC); settings: yeast two-hybrid (β-galactosidase), BiFC in HEK293 cells, result in words
HDAC5c = assay: Interaction with HDAC5c (yeast two-hybrid, GST pull-down, BiFC); settings: yeast two-hybrid (β-galactosidase), in vitro GST pull-down, BiFC in HEK293 cells; result in words
[1] = molecular target: T1, human HDAC4c (R651-T1055) H976Y mutant (human, UniProt P56524 651-1055, H976Y); assay: ITC; 25 injections of peptide (2.25 mM) into HDAC4c H976Y (0.113 mM); 20°C; 20 mM Tris-HCl pH 7.5, 200 mM NaCl, 0.1% NP-40, 0.5 mM TCEP; independent binding sites model; settings: both partners purified
T1 construct: histone deacetylase 4 (HDAC4), human, catalytic domain R651-T1055; also called HDAC4c H976Y; source: E. coli BL21 Star (DE3), purified (HisTrap, TEV digestion, HiTrap Q)
T1 sequence (looked up): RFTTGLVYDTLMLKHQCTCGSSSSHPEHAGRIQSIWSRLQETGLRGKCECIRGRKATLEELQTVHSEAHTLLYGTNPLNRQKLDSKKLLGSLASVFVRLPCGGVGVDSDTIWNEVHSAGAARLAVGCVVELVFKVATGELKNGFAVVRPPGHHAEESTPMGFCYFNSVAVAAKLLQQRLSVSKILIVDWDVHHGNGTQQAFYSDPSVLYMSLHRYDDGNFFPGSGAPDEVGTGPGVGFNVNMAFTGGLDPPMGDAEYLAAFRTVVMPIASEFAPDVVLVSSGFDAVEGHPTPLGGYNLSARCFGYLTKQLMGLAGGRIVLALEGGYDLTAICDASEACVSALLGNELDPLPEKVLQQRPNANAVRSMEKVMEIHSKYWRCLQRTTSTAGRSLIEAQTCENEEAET

HDAC4c D759Y = settings: HDAC4c mutant versus wild-type; cited from earlier work
Text: Next, we analyzed the mutational effects of SM1 mutants by OPTHiS screening (Figure 5A). […] In the peptide-complex structures, G+1, S+2 and T+4 residues on both peptides interact, directly or through water molecules, with residues on the cleft wall of the structural zinc-binding subdomain (Figure 3E). Mutations in this peptide region (G+1R, S+2D and T+4N/T+4A) altered the binding affin ... || Among the seven HDACs whose catalytic domain structures have been reported, HDAC4c is unique in that it has an open conformation when it binds to non-peptide molecules. In agreement with this, mutations at the ^+1GSI^+3 residues of two motifs and R+9 residue of the SM1 lead to a loss of its binding activity to HDAC4c/-5c (Figures 1 and 5). The class IIa HDAC-specific residues (D759, H842, and F871), which are located at the cleft to and entrance to the catalytic zinc-binding site, interact directly or indirectly with these residues of bound peptides (Figure 3D and E). Further, HDAC4c mutants o ...

HDAC4c F871L = settings: HDAC4c mutant versus wild-type; cited from earlier work
Text: (§1) Among the seven HDACs whose catalytic domain structures have been reported, HDAC4c is unique in that it has an open conformation when it binds to non-peptide molecules. In agreement with this, mutations at the ^+1GSI^+3 residues of two motifs and R+9 residue of the SM1 lead to a loss of its binding activity to HDAC4c/-5c (Figures 1 and 5). The class IIa HDAC-specific residues (D759, H842, and F871), which are located at the cleft to and entrance to the catalytic zinc-binding site, interact directly or indirectly with these residues of bound peptides (Figure 3D and E). Further, HDAC4c mutants o ...

HDAC4c F871S = settings: HDAC4c mutant versus wild-type; cited from earlier work
Text: as §1

HDAC4c H842L = settings: HDAC4c mutant versus wild-type; cited from earlier work
Text: as §1

class I enzymes = system: class I enzymes; set-up: method as in PMID 10640275; settings: cited from earlier work
class IIa HDACs = system: class IIa HDACs; set-up: method as in PMID 10640275; settings: cited from earlier work

SM1F: 40-amino acid fragment containing SM1 in the middle (E1346-L1385)
binding to HDAC4c (HDAC4c): better binding activity of SM1F than SM2F to all HDACs
binding to HDAC5c (HDAC5c): better binding activity of SM1F than SM2F to all HDACs

B1: SP1 (peptide)
peptide: HIRGSITQGIPRSYV
notes: human SMRT peptide around motif SM1, printed as -3 to +12 (+1 = G1361); also called SMRT peptide SP1; source: synthetic peptide (Anygen)
Kd [1]: 2.23 µM
dH [1]: -11.2 kcal/mol
stoichiometry N [1]: 0.82

B2: SP2 (peptide)
peptide: KEGSITQGTPLKY
notes: human SMRT peptide around motif SM2, printed as -2 to +11 (+1 = G1457); also called SMRT peptide SP2; source: synthetic peptide (Anygen)
Kd [1]: 18.8 µM
dH [1]: -7.01 kcal/mol
stoichiometry N [1]: 0.977

B3: SRD3c: C-terminal region of SMRT repression domain 3 (K1316-S1515 of human SMRT) (protein, UniProt Q9Y618 1316-1515, looked up, fragment)
chain: GRVGRAISSASIEGLMGRAIPPERHSPHHLKEQHHIRGSITQGIPRSYVEAQEDYLRREAKLLKREGTPPPPPPSRDLTEAYKTQALGPLKLKPAHEGLVATVKEAGRSIHEIPREELRHTPELPLAPRPLKEGSITQGTPLKYDTGASTTGSKKHDVRSLIGSPGRTFPPVHPLDVMADARALERACYEESLKSRPGTA
binding affinity to HDAC4c D759Y (HDAC4c D759Y): decreased binding affinities
binding affinity to HDAC4c F871L (HDAC4c F871L): decreased binding affinities
binding affinity to HDAC4c F871S (HDAC4c F871S): decreased binding affinities
binding affinity to HDAC4c H842L (HDAC4c H842L): decreased binding affinities
interaction with class I HDACs (class I enzymes): not with class I enzymes
interaction with class IIa HDACs (class IIa HDACs): specifically interacts with class IIa HDACs
